# Values quoted from earlier work as cited in article PMC11070930 (The Biochemical journal, 2024).
# The chains behind the UniProt entries cited, without tags or fusion partners.
# UniProt P09874, whole entry: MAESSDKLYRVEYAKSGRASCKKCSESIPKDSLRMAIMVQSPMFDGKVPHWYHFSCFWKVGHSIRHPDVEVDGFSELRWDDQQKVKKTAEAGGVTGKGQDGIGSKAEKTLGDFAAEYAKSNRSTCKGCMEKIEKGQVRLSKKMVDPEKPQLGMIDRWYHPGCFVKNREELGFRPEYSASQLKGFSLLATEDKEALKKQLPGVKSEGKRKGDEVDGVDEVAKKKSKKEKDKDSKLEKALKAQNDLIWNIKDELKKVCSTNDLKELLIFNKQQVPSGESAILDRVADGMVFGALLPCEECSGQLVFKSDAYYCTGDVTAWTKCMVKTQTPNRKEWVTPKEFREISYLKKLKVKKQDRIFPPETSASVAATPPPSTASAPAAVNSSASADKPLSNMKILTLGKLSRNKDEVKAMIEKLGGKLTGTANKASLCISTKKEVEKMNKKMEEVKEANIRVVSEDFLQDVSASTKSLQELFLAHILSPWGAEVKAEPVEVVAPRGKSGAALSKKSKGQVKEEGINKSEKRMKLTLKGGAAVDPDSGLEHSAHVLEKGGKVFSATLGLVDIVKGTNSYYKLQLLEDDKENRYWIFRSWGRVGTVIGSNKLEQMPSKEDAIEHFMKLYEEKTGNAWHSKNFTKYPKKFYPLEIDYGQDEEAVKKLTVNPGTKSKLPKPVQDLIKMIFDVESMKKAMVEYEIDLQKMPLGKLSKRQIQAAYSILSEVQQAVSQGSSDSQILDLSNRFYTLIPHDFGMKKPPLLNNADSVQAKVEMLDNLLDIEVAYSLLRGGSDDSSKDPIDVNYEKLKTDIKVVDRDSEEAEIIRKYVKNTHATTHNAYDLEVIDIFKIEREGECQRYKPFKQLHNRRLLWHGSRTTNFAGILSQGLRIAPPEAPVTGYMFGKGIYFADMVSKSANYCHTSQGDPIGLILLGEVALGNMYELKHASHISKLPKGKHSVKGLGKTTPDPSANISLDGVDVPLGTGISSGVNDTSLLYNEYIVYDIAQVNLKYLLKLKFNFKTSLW
# Biological target: PARP1 (Homo sapiens, UniProt P09874)
# Conditions: allosteric-based classification reported earlier; cited from earlier work
compound,measurement,value
Cn1ncnc1[C@H]1c2n[nH]c(=O)c3cc(F)cc(c23)N[C@@H]1c1ccc(F)cc1 [talazoparib],allosteric PARPi type,Type II
